Data from patent publication US20110159111A1, “PHARMACEUTICAL COMBINATIONS” (priority 2006, published 2011).

Amino acid sequences for entries named in this document (tags omitted). Residues count along the entry.
UniProt P12931, whole entry: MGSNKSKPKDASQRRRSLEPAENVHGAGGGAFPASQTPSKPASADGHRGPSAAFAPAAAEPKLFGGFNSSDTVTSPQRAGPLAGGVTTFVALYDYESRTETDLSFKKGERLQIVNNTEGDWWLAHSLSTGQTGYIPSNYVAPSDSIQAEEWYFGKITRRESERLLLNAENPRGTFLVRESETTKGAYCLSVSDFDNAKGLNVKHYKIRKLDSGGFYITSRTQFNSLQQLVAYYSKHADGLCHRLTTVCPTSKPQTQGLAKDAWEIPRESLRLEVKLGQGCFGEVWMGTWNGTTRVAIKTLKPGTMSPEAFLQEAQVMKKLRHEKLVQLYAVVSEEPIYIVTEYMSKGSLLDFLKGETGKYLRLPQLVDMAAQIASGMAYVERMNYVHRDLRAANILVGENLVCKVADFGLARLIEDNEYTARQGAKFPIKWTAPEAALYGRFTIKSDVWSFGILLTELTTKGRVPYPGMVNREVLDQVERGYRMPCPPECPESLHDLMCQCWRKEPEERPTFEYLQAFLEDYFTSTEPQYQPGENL
UniProt P35968, 20-1356: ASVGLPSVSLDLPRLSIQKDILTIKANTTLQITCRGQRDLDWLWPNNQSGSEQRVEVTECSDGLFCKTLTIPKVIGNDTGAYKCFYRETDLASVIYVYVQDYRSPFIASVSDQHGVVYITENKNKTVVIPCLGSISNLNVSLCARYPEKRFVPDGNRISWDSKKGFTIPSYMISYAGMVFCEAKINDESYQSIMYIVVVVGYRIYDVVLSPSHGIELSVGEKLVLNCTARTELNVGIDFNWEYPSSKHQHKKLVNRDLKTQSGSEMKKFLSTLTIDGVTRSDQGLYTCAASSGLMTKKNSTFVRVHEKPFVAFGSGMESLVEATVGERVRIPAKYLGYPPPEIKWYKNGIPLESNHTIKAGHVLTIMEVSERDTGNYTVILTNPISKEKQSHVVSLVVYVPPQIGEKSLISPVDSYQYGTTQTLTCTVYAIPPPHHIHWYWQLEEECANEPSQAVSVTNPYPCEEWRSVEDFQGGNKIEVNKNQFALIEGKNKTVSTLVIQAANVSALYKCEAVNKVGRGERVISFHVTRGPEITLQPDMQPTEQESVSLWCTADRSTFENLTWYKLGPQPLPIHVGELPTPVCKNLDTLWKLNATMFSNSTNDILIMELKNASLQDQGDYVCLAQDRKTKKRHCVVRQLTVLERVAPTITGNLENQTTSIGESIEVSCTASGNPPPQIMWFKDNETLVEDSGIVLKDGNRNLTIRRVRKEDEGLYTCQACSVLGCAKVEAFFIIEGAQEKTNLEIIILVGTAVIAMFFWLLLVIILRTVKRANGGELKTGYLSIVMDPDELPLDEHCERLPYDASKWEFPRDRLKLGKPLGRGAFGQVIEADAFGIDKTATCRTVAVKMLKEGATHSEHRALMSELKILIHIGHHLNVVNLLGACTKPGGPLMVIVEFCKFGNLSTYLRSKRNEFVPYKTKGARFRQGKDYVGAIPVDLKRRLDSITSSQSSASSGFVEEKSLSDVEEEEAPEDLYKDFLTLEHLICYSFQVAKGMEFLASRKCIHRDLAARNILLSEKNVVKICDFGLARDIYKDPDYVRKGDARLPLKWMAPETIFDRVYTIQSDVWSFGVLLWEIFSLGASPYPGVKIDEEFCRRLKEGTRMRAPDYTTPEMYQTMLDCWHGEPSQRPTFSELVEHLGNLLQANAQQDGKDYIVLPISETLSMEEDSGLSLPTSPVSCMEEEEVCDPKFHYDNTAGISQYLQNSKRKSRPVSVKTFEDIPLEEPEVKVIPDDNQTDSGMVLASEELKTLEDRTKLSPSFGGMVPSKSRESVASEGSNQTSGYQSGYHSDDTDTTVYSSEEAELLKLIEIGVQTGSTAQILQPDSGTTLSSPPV

Tests used:
cSrc = cSrc (Homo sapiens, UniProt P12931); assay: biochemical
VEGFR2 (KDR) = VEGFR2 (KDR) (Homo sapiens, UniProt P35968); assay: biochemical

O=C(Nc1c[nH]nc1-c1nc2cc(CN3CCOCC3)ccc2[nH]1)NC1CC1 [compound of formula (I), 1-cyclopropyl-3-[3-(5-morpholin-4-ylmethyl-1H-benzoimidazol-2-yl)-1H-pyrazol-4-yl]-urea]
IC50 (cSrc): < 100 nM | IC50 (VEGFR2 (KDR)): < 100 nM
